Measurements published in ChEMBL document CHEMBL4270552, “4-(Phenoxy) and 4-(benzyloxy)benzamides as potent and selective inhibitors of mono-ADP-ribosyltransferase PARP10/ARTD10” (Eur J Med Chem, 2018).

Target: T1, Protein mono-ADP-ribosyltransferase PARP10 (Homo sapiens) (UniProt Q53GL7)
T1 sequence (whole entry): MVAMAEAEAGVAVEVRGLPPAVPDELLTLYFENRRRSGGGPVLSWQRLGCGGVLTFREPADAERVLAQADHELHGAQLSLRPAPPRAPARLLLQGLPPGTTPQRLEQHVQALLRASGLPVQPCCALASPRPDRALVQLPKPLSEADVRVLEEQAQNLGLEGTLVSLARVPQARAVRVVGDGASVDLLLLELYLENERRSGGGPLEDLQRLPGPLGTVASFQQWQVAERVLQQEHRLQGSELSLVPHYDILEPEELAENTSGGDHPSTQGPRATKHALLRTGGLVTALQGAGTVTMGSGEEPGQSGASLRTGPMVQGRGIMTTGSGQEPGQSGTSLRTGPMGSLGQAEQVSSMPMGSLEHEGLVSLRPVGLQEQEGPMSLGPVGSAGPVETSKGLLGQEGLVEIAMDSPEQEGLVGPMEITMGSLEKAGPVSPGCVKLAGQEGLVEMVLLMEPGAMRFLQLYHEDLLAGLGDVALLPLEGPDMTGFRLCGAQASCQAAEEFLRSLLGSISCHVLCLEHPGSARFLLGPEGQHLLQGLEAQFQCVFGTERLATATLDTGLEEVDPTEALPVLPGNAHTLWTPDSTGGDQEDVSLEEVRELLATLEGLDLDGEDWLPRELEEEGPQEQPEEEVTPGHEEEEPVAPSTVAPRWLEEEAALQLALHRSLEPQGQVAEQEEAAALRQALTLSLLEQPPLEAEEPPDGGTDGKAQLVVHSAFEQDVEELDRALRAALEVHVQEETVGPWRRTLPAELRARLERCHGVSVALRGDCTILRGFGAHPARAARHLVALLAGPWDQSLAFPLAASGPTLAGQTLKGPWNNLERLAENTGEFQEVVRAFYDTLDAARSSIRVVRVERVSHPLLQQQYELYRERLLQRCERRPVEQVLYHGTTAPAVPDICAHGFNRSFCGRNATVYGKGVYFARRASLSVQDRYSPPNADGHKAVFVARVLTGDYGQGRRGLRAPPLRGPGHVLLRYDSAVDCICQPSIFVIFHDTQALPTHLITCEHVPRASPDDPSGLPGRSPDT
Details: 10 uM

Row | inhibition | Structure (SMILES)
1 | 49% | NC(=O)c1ccc(Oc2ccccn2)cc1
2 | 16% | CC(C)c1ccc(C(C)Oc2ccc(C(N)=O)cc2)cc1 (stereo not given)
3 | 16% | N#Cc1ccc(Sc2ccc(C(N)=O)cc2)cc1
4 | 26% | CN(c1ccc(C(N)=O)cc1)c1ccc(C(N)=O)cc1
5 | 0% | CP(=O)(c1ccc(C(N)=O)cc1)c1ccc(C(N)=O)cc1
6 | 0% | NC(=O)c1ccc(Nc2ccc(C(N)=O)cc2)cc1
7 | 24% | NC(=O)c1ccc(C(=O)c2ccc([N+](=O)[O-])cc2)cc1
8 | 30% | NC(=O)c1ccc(Sc2ccc(C(N)=O)cc2)cc1
9 | 27% | NC(=O)c1ccc(O)cc1
10 | 0% | CCOc1ccc(OCc2ccc(C(N)=O)cc2)cc1
